Values quoted from earlier work in patent publication US20050075275A1, “Regulation of the apj receptor for use in the treatment or prophylaxis of cardiac diseases” (Bayer Aktiengesellschaft, priority 2001, published 2005).
Read-outs that look alike come from different tables or passages of the source.

Amino acid sequences for entries named in this document (tags omitted). A change or cut given only in a name is not applied to a line headed by its entry.
UniProt Q9JHG3: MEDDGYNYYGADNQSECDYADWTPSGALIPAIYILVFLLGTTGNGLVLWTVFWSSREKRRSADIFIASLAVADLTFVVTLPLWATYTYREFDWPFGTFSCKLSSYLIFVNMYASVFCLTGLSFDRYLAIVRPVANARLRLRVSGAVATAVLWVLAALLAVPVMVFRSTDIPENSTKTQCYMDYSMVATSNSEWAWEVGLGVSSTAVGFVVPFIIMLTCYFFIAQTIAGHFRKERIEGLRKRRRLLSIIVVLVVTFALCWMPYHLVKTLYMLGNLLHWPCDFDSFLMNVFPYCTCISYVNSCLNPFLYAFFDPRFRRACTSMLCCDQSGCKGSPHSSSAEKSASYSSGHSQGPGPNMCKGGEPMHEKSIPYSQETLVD

Columns and labels:
[1] = target: T1, APJ receptor (Rattus norvegicus, UniProt Q9JHG3); details: rats, systemic administration; cited from earlier work
[2] = target: T1, APJ receptor; details: dehydrogenated rats, direct administration in the brain; cited from earlier work

apelin
blood pressure [1]: reduction in blood pressure
heart rate [1]: without a change in the heart rate
blood pressure [2]: without having an effect on blood pressure
water uptake [2]: inhibition of water uptake
